Test: Biodistribution in mice by organ uptake measurements, relative to Tc99m-MAG3 (iodo-131-Hippuran as reference standard)
Assay type: in vivo
Conditions: for Blood: ratio of uptake of compound to uptake of Tc99m-MAG3 / Hepatic (system): ratio of uptake of compound to uptake of Tc99m-MAG3 / Intestines: ratio of uptake of compound to uptake of Tc99m-MAG3 / Kidneys: ratio of uptake of compound to uptake of Tc99m-MAG3 / Liver: ratio of uptake of compound to uptake of Tc99m-MAG3 / Remainder / Rest of the body: ratio of uptake of compound to uptake of Tc99m-MAG3 / Renal (system): ratio of uptake of compound to uptake of Tc99m-MAG3 / Stomach: ratio of uptake of compound to uptake of Tc99m-MAG3 / Urine: ratio of uptake of compound to uptake of Tc99m-MAG3: intravenous, 10 minutes after administration, each normalised to iodo-131-Hippuran; for Secretion characteristics / organ distribution compared with Tc99m-MAG3 (in words): secretion in urine, retention in kidneys, liver, intestines
Procedure: Tc99m-MAGAG-DA, separated by HPLC, is diluted with physiological saline solution to a concentration of 370 kilobecquerel per mi. Iodo-131-Hippuran is added to this solution as a reference standard. An amount of 0.1 ml of this mixture is injected intravenously into each of the eight mice, so that 37 kilobecquerel of Tc99m-MAGAG-DA and 18.5 kilobecquerel of iodo-131-Hippuran are injected per animal. Measures are taken to collect all the excreted urine. 10 Minutes after the administration the mice are sacrificed. It is ensured that all the blood is collected. All parts of the body are brought in separate tubes and the activity of Tc99m and I131 is determined for each part of the body. From the measured results the relative quantity of both tracer products in urine, kidneys, intestines. liver, blood and the collective remainder of the body is computed. In the same manner, Tc99m-MAGA-DB, separated by HPLC, and Tc99m-mercaptoacetylglycylglycylglycine (Tc99m-MAG3), purified by HPLC, both with iodo-131-Hippuran as a reference standard, are tested in two other groups of 8 and 6 mice, respectively. For all three Tc99m-labelled compounds -- MAGAG-DA, MAGAG-DB and MAG3 -- the relative percentages of Tc99m activity in the various organs are calculated with respect to iodo-131-Hippuran. After this, the ratios of Tc99m-MAGAG-DA and -DB can be calculated with respect to Tc99m-MAG3 in the various organs.
In the same ray as described in Example III the biodistribution of the above compound in mice is determined relative to that of Tc99m-MAG3 by organ uptake measurements.
In the same way as described in Example III the biodistribution of the above compound in mice is determined relative to that of Tc99m-MAG3 by organ uptake measurements.

| Substance | Blood: ratio of uptake of compound to uptake of Tc99m-MAG3 | Hepatic (system): ratio of uptake of compound to uptake of Tc99m-MAG3 | Intestines: ratio of uptake of compound to uptake of Tc99m-MAG3 | Kidneys: ratio of uptake of compound to uptake of Tc99m-MAG3 | Liver: ratio of uptake of compound to uptake of Tc99m-MAG3 | Remainder / Rest of the body: ratio of uptake of compound to uptake of Tc99m-MAG3 | Renal (system): ratio of uptake of compound to uptake of Tc99m-MAG3 | Stomach: ratio of uptake of compound to uptake of Tc99m-MAG3 | Urine: ratio of uptake of compound to uptake of Tc99m-MAG3 | Secretion characteristics / organ distribution compared with Tc99m-MAG3 (in words) |
| --- | --- | --- | --- | --- | --- | --- | --- | --- | --- | --- |
| Tc99m-mercaptoacetylglycyl-D-serylglycine [Tc99m-MAGSERG-DA] | 0.98 | 0.43 | 0.48 | 0.44 | 0.39 | 1.38 | 1.03 | 0.70 | 1.13 | significantly better than those of Tc99m-MAG3 |
| Tc99m-mercaptoacetylglycyl-D-serylglycine [Tc99m-MAGSERG-DB] | 0.94 | 0.67 | 0.47 | 0.42 | 0.72 | 1.23 | 1.01 | 0.66 | 1.10 | significantly better than those of Tc99m-MAG3 |
